Measurements taken from patent publication US20130189225A1 (ASSOCIATION INSTITUT DE MYOLOGIE, published 2013).

Sequences of proteins named here, by UniProt entry; tags and fusion partners are left off. Residues count along the entry.
UniProt Q08380, 19-585 limits assumed: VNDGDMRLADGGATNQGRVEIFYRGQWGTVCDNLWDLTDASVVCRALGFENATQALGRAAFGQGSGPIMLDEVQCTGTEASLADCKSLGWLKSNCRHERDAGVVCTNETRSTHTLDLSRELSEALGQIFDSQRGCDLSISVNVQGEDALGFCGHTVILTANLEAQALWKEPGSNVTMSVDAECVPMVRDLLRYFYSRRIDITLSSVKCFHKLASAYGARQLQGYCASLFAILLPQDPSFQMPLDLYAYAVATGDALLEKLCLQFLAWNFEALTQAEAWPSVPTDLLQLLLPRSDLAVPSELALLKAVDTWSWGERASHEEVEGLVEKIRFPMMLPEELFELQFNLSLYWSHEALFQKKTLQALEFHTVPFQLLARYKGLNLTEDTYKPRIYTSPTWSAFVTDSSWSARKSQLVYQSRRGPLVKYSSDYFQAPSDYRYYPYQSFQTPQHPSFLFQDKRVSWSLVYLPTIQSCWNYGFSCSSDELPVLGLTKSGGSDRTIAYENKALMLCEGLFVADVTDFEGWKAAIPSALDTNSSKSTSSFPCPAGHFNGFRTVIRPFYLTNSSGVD

Target: human galectin 3 binding protein (G3BP), native protein of human serum (human) (UniProt Q08380)
Assay: surface plasmon resonance imagery, rAAV immobilised on glass prism, hu-G3BP injected

For “rAAV-8 (recombinant adeno-associated virus vector with AAV-8 capsid)”, the Ka was 1e+09 M⁻¹ and the binding capacity compared to rAAV-6 (times less than rAAV-6) was 2.
